The values below come from US7875621B2, “Substituted 2-alkyl quinazolinone derivatives as PARP inhibitors” (Janssen Pharmaceutica NV, priority 2004, dated 2011).

Protein sequences, listed by entry. Tags and fused reporters are not part of them.
UniProt P09874, whole entry: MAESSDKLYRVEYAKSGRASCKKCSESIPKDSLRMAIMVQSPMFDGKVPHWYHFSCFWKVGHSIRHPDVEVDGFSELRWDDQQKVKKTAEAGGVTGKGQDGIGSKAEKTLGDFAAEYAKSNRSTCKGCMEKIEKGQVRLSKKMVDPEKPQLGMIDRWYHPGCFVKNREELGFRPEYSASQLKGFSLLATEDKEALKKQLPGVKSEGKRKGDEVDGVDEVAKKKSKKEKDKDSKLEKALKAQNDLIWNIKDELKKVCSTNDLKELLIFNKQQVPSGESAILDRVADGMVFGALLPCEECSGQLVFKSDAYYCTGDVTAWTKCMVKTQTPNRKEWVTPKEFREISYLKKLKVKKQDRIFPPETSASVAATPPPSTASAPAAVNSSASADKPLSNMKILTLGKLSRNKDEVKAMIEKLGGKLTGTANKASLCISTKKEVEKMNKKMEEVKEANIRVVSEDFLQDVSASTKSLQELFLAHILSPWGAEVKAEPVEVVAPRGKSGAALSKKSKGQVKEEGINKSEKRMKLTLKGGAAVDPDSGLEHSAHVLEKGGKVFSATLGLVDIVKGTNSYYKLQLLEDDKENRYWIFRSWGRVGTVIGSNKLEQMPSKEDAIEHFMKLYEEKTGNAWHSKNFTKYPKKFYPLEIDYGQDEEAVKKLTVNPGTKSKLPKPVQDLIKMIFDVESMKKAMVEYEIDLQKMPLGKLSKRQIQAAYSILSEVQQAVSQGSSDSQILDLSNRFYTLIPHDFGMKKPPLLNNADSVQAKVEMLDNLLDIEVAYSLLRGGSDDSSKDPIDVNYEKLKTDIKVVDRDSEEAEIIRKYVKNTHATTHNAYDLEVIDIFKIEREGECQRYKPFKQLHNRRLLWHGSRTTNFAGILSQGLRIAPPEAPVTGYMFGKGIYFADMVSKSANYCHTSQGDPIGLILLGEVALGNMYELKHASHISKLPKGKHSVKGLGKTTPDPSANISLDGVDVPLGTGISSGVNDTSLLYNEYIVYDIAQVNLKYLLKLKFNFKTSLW
UniProt Q9H2K2, whole entry: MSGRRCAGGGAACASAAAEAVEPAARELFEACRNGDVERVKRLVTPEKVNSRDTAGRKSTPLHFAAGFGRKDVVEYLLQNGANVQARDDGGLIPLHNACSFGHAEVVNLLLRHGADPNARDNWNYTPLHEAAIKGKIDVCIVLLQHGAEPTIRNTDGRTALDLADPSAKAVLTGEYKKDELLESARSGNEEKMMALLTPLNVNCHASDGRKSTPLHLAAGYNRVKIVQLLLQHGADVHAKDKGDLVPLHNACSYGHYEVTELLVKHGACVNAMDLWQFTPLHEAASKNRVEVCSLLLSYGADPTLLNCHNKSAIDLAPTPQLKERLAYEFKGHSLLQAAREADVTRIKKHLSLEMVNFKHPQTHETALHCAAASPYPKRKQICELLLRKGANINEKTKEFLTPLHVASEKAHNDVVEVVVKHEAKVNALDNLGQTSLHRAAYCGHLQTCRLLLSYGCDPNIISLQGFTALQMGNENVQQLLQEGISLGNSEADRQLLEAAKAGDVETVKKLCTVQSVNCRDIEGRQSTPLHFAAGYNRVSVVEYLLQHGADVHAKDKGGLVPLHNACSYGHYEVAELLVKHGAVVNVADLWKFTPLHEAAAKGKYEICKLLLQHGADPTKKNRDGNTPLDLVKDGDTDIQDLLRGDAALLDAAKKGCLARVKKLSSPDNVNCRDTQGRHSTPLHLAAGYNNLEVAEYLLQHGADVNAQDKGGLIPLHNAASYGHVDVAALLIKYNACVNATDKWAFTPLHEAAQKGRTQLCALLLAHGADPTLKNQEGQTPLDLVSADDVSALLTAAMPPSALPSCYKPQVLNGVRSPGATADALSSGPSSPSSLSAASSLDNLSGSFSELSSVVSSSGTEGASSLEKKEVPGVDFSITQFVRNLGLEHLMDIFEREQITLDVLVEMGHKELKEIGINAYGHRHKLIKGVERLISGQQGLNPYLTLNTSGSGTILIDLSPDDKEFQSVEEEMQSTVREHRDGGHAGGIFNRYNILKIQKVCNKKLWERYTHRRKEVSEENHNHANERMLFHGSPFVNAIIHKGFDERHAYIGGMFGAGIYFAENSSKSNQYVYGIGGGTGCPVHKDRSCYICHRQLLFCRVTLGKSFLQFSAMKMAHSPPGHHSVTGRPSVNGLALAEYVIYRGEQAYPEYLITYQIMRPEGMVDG

Some compounds may have been tested in ways that are not shown here.

Assay [1] concerns the target T1, PARP-1 enzyme (Homo sapiens, UniProt P09874). The assay is described as follows: In vitro filtration assay for PARP-1 inhibitory activity. Particulars: [32P]-NAD, nicked DNA, histones.
Assay [2] addresses T1, PARP-1 enzyme. Put plainly: In vitro scintillation proximity assay (SPA) for PARP-1 inhibitory activity. Particulars: [3H]-NAD+, nicked DNA, biotinylated histones.
In a further assay the target is TANK-2 enzyme (Homo sapiens, UniProt Q9H2K2). Put plainly: In vitro scintillation proximity assay (SPA) for TANK-2 inhibitory activity. Particulars: auto-poly(ADP-ribosyl)ation, [3H]-NAD+, 96- or 384-well Ni Flash plates.

As to `O=c1[nH]c(CCN2CCC(n3c(=O)[nH]c4ccccc43)CC2)nc2ccccc12`, the “in vitro filter assay PARP-1 pIC50” value on PARP-1 enzyme [1] is 5. In addition, on PARP-1 enzyme [2], the “in vitro SPA assay PARP-1 pIC50” value came out at 6.376. At TANK-2 enzyme, the “in vitro SPA TANK-2 pIC50” value is 5.674.
